Molecular target: T1, Fatty-acid amide hydrolase 1 [30-579] (Rattus norvegicus, UniProt P97612)
T1 construct: 30-579
Test: FAAH Assay
Settings: pH 7; 4 °C

The chains behind the UniProt entries cited, without tags or fusion partners. Residues count along the entry.
UniProt P97612, 30-579: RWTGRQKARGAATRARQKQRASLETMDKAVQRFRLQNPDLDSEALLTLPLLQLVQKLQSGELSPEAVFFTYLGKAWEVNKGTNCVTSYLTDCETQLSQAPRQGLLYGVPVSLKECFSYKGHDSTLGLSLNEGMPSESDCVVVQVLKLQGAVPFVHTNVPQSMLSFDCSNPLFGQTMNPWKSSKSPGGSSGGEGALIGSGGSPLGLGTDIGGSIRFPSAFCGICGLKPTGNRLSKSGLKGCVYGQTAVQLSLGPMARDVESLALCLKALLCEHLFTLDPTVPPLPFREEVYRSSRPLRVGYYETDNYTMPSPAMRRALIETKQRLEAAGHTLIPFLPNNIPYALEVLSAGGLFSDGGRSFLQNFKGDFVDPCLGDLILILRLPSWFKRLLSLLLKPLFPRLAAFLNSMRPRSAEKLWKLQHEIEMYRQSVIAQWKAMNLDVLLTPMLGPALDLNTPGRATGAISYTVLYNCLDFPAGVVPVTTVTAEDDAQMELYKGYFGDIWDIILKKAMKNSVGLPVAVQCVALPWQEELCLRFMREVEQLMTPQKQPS

Cc1cccnc1NC(=O)CNC(=O)C(C)c1ccc(CC(C)C)cc1 (stereo unspecified) [ibu-am14 (9)]
IC50: 3.6 µM

Reference: BindingDB's records for doi:10.3109/14756366.2011.643304 (Umeå University, 2013)
